Assay results as given in patent US7462716B2, “Statin derivatives” (Nicox S.A., priority 2003, dated 2008).
Read-outs that look alike come from different tables or passages of the source.

System: human platelets
Test: U46619-induced platelet aggregation in vitro
Format: cell-based
Protocol: Platelets are prominent components of the thrombi.
Compounds were incubated at 37° C. for 2 min before adding U46619, an aggregating agent, TxA2 analog. Aggregation was followed for 5 min and the maximal amplitude (cm) was measured. DMSO (0.05%) was used as vehicle. Compounds were tested at concentrations ranging from 50 to 200 μM.

SMILES: CC[C@H](C)C(=O)O[C@H]1C[C@H](O)C=C2C=C[C@H](C)[C@H](CC[C@@H](O)C[C@@H](O)CC(=O)O)[C@H]21 [Pravastatin, pravastatin, reference compound]
- IC50 (read-out: Platelet aggregation (GFP) IC50): > 200 µM
- IC50 (read-out: Platelet aggregation (PRP) IC50): > 200 µM
